# From patent US20190194310A1 (NUMAB INNOVATION, published 2019)
# Chains of the proteins cited; added tags and fusions are not shown. Residues count along the entry.
# UniProt P01375, 77-233 limits assumed: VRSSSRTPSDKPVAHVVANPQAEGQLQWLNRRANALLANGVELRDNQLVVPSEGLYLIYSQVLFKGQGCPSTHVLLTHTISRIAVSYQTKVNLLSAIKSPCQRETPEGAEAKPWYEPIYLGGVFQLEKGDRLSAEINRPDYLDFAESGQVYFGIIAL
# B1: infliximab (antibody, V domains shown)
# VH: EVKLEESGGGLVQPGGSMKLSCVASGFIFSNHWMNWVRQSPEKGLEWVAEIRSKSINSATHYAESVKGRFTISRDDSKSAVYLQMTDLRTEDTGVYYCSRNYYGSTYDYWGQGTTLTVSS
# VL: DILLTQSPAILSVSPGERVSFSCRASQFVGSSIHWYQQRTNGSPRLLIKYASESMSGIPSRFSGSGSGTDFTLSINTVESEDIADYYCQQSHSWPFTFGSGTNLEVKR
# Target: recombinant human TNFα (human, UniProt P01375 77-233)
# Assay: cell-based or functional assay
binder,measurement,value
B1,"IC50, TNFα-induced apoptosis in L929 fibroblasts",0.0362 µg/mL
